Assay results from PubChem BioAssay (NCATS).
This is a selection; strong and weak results do not stand in their true shares. Results filed as inconclusive are left out. The source made the active and inactive calls. Calls come from the whole dose curve; as a rule, active = well fitted cell-killing curve with a large enough effect; inconclusive = small, poorly fitted or top-dose-only effect, or effect the other way; inactive = no such curve, though single readings can be large or run the other way.

Columns and labels:
[1] = Quantitative High-Throughput drug screen in 47 multiple myeloma cell lines against the NCATS MIPE library collection: OCIMY1_PLB cell viability assay (AID 1918979); conditions: OCI-MY1 myeloma viability, CellTiter-Glo ATP, 48 h; at 45.8 µM (top of the series);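 note: 100% = DMSO-only wells and 0% = cell-free media-only wells; nearly all actives have a fitted effect of over 35% in size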
Summary of the method: (§1)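 qHTS format: cells plated (500/well), pin-dosed with MIPE 4.0 compounds, kept 48 h at 37 °C. Readout was CellTiter-Glo luminescence, median RLU.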

[2] = Quantitative High-Throughput drug screen in 47 multiple myeloma cell lines against the NCATS MIPE library collection: MM1S_ATCC cell viability assay (AID 1918980); conditions: MM1S myeloma viability, CellTiter-Glo ATP luminescence, 48 h; at 45.8 µM (top of the series);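 note: 100% = wells with DMSO only and 0% = wells with media only; nearly all actives have a fitted effect of over 45% in size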
Summary of the method: as §1

[3] = Quantitative High-Throughput drug screen in 47 multiple myeloma cell lines against the NCATS MIPE library collection: MM1R_ATCC cell viability assay (AID 1918981); conditions: MM1R multiple myeloma cells, CellTiter-Glo viability, 48 h; at 45.8 µM (top of the series); note: nearly all actives have a fitted effect of over 35% in size
From the text: (§2) PI: Beverly A. Mock Ph.D.
(§3) Laboratory of Cancer Biology and Genetics,
(§4) Center for Cancer Research, National Cancer Institute,
(§5) National Institute of Health, Bethesda, Maryland
(§6) Drug resistance and disease progression are common in multiple myeloma (MM) patients, underscoring the need for new therapeutic combinations. […] We hypothesized that effective combinations would reduce MYC expression and enhance p16 activity. […] These preclinical data identify potentially useful drug combinations for evaluation in drug-resistant MM and reveal potential mechanisms of combined drug sensitivity.
(§7) Described herein is the primary MIPE qHTS used to cherrypick compounds. Validated compounds were then further tested for potential synergistic activiy.
[1] […]
(§8) 5; Detector; 425V; Luminescence; Viewlux PerkinElmer. […]
(§9) 1. […] Briefly, the corresponding myeloma cell lines were screened in 1,536-well plates with 500 cells, 5-uL per well for inhibition of cell viability (assessed by measuring ATP levels with CellTiterGlo). […]
(§10) 5. Signal was measured as median relative luminescence units on a ViewLux (PerkinElmer) multiplate reader. […]

[4] = Quantitative High-Throughput drug screen in 47 multiple myeloma cell lines against the NCATS MIPE library collection: LP1_DSMZ cell viability assay (AID 1918982); conditions: LP1 myeloma viability, CellTiter-Glo ATP luminescence, 48 h; at 45.8 µM (top of the series); note: nearly all actives have a fitted effect of over 35% in size
Summary of the method: as §1

[5] = Quantitative High-Throughput drug screen in 47 multiple myeloma cell lines against the NCATS MIPE library collection: KMS34_JCRB cell viability assay (AID 1918985); conditions: KMS34 myeloma viability, CellTiter-Glo ATP luminescence, 48 h; at 45.8 µM (top of the series);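 note: 100% = DMSO-only wells and 0% = media-only wells; nearly all actives have a fitted effect of over 40% in size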
From the text: as §2, §3, §4, §5, §6, §7
[1] […]
as §8, §9, §10

[6] = Quantitative High-Throughput drug screen in 47 multiple myeloma cell lines against the NCATS MIPE library collection: OCIMY7_PLB cell viability assay (AID 1918987); conditions: OCI-MY7 myeloma viability, CellTiter-Glo ATP, 48 h; at 45.8 µM (top of the series); note: nearly all actives have a fitted effect of over 65% in size
Summary of the method: as §1

[7] = Quantitative High-Throughput drug screen in 47 multiple myeloma cell lines against the NCATS MIPE library collection: OCIMY5_PLB cell viability assay (AID 1918988); conditions: OCI-MY5 myeloma viability, ATP luminescence, 48 h; at 45.8 µM (top of the series);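 note: 100% = DMSO-treated wells and 0% = wells with media alone; nearly all actives have a fitted effect of over 65% in size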
Summary of the method: as §1

[8] = Quantitative High-Throughput drug screen in 47 multiple myeloma cell lines against the NCATS MIPE library collection: OPM1_PLB cell viability assay (AID 1918989); conditions: CellTiter-Glo, 48 h; at 45.8 µM (top of the series);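 note: 100% = DMSO-only wells and 0% = media-only wells; nearly all actives have a fitted effect of over 40% in size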
Summary of the method: as §1

[9] = Quantitative High-Throughput drug screen in 47 multiple myeloma cell lines against the NCATS MIPE library collection: SKMM1_PLB cell viability assay (AID 1919863); conditions: SKMM1 myeloma viability, CellTiter-Glo ATP, 48 h; stronger effect = lower value; note: nearly all actives have a fitted effect of over 35% in size
Summary of the method: as §1

[10] = Quantitative High-Throughput drug screen in 47 multiple myeloma cell lines against the NCATS MIPE library collection: U266_ATCC cell viability assay (AID 1919864); conditions: U266 myeloma viability, CellTiter-Glo ATP luminescence, 48 h; at 45.8 µM (top of the series)
From the text: as §2, §3, §4, §5, §6, §7
[1] […]
as §8, §9, §10

CCOC(=O)C(=O)CBr
inactive: viability [1] 130% | viability (% of control) [2] 130% | viability (% of control) [3] 99.5% | viability (% of control) [4] 98.7% | viability, percent of control [5] 113% | viability (% of DMSO) [6] 97.3% | viability, % of control [7] 150% | viability (% of control) [8] 103% | viability [9] 127% | viability (% of DMSO control) [10] 122%
